One compound from patent publication US11857584B2, “Oncolytic virus growth method and antitumor agent” (KABUSHIKI KAISHA YAKULT HONSHA, priority 2017, dated 2024) can be followed below.

Read-outs that look alike come from different tables or passages of the source.

The subject of data set [1] is oxaliplatin-resistant colon cancer cell line (WiDr). Particulars: oxaliplatin 50 μM, CVA11 MOI=0.01, culturing 72 hours.
The test system is the same in data set [2]. The following applies: CVB3 MOI 0, 0.001, 0.01 or 0.1, oxaliplatin 0, 0.5, 1 or 5 μM.

For `O=C1[O][Pt]2([NH][C@@H]3CCCC[C@H]3[NH]2)[O]C1=O` [oxaliplatin], the “antitumor effect (cytotoxicity), crystal violet method” value in data set [1] and in data set [2] was “No antitumor effect was observed” throughout.
